Literature values, collected in PubChem BioAssay AID1811 (Shanghai Institute of Organic Chemistry, 2009).
Some of the results follow. Activity calls are given as the source filed them. Unless stated, no cut-off for active and inactive is given here.

System: fiber protein
Test: PubChem AID 1811
Conditions: PDB complex binding affinities from literature

CC(=O)N[C@H]1[C@H]([C@H](O)[C@H](O)CO)O[C@@](O[C@@H]2[C@@H](O)[C@H](O)O[C@H](CO)[C@@H]2O)(C(=O)O)C[C@@H]1O
outcome: active
